Assays:
[1] = molecular target: GluN1/N3A receptors (Rattus norvegicus, UniProt P35439+Q9R1M7); details: negligible current responses
[2] = molecular target: GluN1(T518L)/N2A (Rattus norvegicus, UniProt P35439, T518L)
[3] = molecular target: GluN1(A714L)/N2A (Rattus norvegicus, UniProt P35439, A714L)
[4] = molecular target: GluN1(F484A)/N2A (Rattus norvegicus, UniProt P35439, F484A); details: F484A mutation vs GluN1/N2A
[5] = molecular target: GluN1/N2A (Rattus norvegicus, UniProt P35439); assay: Two-electrode voltage-clamp recordings, Xenopus oocytes expressing GluN1/N2A; assay type: cell-based; details: glycine co-applied with 100 μM glutamate
[6] = molecular target: GluN1(V689L)/N2A (Rattus norvegicus, UniProt P35439, V689L)
[7] = molecular target: GluN1(R523A)/N2A (Rattus norvegicus, UniProt P35439, R523A); details: glycine co-applied with 100 μM glutamate
[8] = glycine co-applied with 100 μM glutamate

Sequences of proteins named here, by UniProt entry; tags and fusion partners are left off. Residues count along the entry.
UniProt Q9R1M7, 24-1115 isoform Q9R1M7-2 limits assumed: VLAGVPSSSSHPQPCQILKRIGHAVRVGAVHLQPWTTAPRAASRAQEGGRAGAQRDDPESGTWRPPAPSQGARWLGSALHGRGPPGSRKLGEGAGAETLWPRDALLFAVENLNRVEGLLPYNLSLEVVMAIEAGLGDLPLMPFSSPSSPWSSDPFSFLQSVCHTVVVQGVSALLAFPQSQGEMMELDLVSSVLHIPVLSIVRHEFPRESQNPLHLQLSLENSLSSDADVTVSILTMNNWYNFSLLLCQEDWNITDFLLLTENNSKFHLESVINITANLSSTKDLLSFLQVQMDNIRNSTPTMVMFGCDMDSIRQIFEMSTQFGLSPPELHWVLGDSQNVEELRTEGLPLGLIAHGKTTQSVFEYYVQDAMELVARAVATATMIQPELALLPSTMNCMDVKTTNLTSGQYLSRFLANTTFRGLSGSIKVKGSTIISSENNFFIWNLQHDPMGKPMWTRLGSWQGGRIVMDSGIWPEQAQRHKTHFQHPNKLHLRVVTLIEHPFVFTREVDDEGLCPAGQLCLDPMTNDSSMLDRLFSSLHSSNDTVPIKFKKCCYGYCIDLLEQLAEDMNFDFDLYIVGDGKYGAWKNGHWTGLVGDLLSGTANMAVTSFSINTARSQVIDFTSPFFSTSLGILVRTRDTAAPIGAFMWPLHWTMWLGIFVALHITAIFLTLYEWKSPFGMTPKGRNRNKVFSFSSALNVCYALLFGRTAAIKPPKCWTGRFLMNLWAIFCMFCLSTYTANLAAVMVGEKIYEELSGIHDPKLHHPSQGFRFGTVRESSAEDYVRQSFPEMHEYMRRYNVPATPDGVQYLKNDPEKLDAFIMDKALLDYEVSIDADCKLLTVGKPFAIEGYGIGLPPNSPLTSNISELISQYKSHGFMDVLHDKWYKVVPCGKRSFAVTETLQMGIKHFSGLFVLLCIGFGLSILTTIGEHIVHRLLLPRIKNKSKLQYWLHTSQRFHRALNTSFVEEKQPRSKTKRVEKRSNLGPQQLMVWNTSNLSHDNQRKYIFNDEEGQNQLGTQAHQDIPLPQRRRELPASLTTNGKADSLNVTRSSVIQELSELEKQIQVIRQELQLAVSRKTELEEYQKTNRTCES

With `NCC(=O)O` [glycine] the “current responses upon glycine application” value [1] was less than 10 nA, the “increase in glycine EC50” value ([2]; T518L mutation vs GluN1/N2A) was 6000 fold and the “Hill coefficient (nH)” value [2, 8] was 1.68. For the same compound, the “increase in glycine EC50” value ([3]; A714L mutation vs GluN1/N2A) was 25 fold, the “Hill coefficient (nH)” value [3, 8] was 1.28 and the “increase in glycine EC50” value [4] was 3000 fold. For the same compound, the “Hill coefficient (nH)” value [5] was 1.48, the “increase in glycine EC50” value ([6]; V689L mutation vs GluN1/N2A) was 60 fold and the “Hill coefficient (nH)” value [6, 8] was 1.24. For the same compound, the “Hill coefficient (nH)” value [7] was 1.56.
